Measured values from US7994121B2, “Stable analogs of peptide and polypeptide therapeutics” (Trustees of Tufts College, priority 2003, dated 2011).
“Also recorded” adds a separate entry of the source.

Chains of the proteins cited; added tags and fusions are not shown. Residues count along the entry.
UniProt P43220, 24-463: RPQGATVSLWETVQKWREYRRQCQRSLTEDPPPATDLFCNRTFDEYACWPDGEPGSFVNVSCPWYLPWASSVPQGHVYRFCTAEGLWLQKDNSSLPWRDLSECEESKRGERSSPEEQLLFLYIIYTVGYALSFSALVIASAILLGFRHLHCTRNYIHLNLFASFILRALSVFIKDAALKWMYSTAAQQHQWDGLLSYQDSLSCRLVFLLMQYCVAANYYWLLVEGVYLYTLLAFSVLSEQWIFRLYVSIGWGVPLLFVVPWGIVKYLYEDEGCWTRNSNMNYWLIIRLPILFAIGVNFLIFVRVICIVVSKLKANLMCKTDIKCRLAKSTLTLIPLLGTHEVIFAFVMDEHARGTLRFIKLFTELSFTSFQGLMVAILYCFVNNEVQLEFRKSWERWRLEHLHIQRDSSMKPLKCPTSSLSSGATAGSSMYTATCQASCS

Biological target: T1, human GLP-1 receptor (Homo sapiens, UniProt P43220)
T1 construct: expressed in transfected cells; host or cells: COS-7
Test: cAMP production in COS-7 cells transiently transfected with human GLP-1 receptor
Assay type: cell-based
Settings: analog 10 μM vs native GLP-1 0.3 μM, one hour at room temperature
Protocol: Further analysis is provided in the right hand panel which summarizes an assay to ascertain whether GLP-1 (3DMA) potentiates GLP-1 signaling in a manner similar to the native peptide. COS-7 cells (approx 10^6/10 cm plate) were transiently transfected with cDNA encoding the human GLP-1 receptor. One day after transfection, the cells were trypsinized and seeded in 24-well plates (density of approx 10^5/well). Two days following transfection, the cells were incubated for one hour at room temperature either with native GLP-1 (0.3 μM), GLP-1 (3DMA) (10 μM), or in the absence of either peptide. cAMP content, which correlates with receptor-mediated signaling, was measured in the cell lysate by proximity scintillation radioimmunoassay.
FIG. 4 summarizes similar experiments in which the activity of GLP-1 (BM) was measured. Briefly, COS-7 cells (approx 10^6/10 cm plate) were transiently transfected with cDNA encoding the human GLP-1 receptor. One day after transfection, the cells were trypsinized and seeded in 24-well plates (density of approx 10^5/well). Two days following transfection, the cells were incubated for one hour at room temperature either with native GLP-1 (0.3 μM), GLP-1 (BM) (10 μM), or in the absence of either peptide. cAMP content, which correlates with receptor-mediated signaling, was measured in the cell lysate by proximity scintillation radioimmunoassay.

With “GLP-1 (BM): GLP1(7-37) analog wherein the P′1 glutamic acid is substituted by 3-butyl-methyl-glycine” the “signaling via the GLP-1 receptor (cAMP content)” value was “potentiated signaling via the GLP-1 receptor to an extent indistinguishable from native GLP-1; also recorded: substantially identical signaling potential”.
